Values quoted from earlier work as cited in US7268148B2, “Compositions and methods for use against acne-induced inflammation and dermal matrix-degrading enzymes” (Regents of the University of Michigan, priority 1999, dated 2007).

Test system: NF-κB
Conditions: cited from earlier work

CCCCC/C=C\C/C=C\C/C=C\C/C=C\CCCCOP(=O)(F)OC (stereo not shown)
effect on TNF-induced NF-κB activation: inhibited
